Test results from US9725430B2, “Use of small molecule inhibitors targeting EYA tyrosine phosphatase” (Children's Hospital Medical Center, priority 2013, dated 2017).

Protein sequences, listed by entry. Tags and fused reporters are not part of them. Residues count along the entry.
UniProt Q99504, 127-573: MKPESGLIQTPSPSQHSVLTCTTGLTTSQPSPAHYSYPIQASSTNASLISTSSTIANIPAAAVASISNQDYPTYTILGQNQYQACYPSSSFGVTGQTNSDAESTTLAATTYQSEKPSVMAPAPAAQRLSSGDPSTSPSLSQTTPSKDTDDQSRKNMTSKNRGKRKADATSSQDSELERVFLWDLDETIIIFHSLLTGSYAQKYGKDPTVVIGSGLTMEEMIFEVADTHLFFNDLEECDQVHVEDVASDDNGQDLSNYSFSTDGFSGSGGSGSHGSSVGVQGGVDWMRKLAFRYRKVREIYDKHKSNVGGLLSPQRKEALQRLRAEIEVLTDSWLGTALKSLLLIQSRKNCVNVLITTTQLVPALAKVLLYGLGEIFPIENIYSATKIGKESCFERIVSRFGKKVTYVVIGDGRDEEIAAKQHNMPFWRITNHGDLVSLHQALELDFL
UniProt P18031, whole entry, species assumed: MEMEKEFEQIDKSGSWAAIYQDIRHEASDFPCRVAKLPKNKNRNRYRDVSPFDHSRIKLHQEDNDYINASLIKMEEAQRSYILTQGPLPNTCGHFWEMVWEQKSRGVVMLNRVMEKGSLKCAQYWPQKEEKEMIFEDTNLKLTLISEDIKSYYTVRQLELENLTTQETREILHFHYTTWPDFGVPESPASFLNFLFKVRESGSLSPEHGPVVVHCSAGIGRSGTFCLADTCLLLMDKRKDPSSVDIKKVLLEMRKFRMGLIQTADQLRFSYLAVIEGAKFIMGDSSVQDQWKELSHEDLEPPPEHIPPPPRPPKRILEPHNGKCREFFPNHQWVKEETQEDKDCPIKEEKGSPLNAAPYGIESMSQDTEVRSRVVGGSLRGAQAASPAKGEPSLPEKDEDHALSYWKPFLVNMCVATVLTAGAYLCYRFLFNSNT
UniProt P97480, 223-510: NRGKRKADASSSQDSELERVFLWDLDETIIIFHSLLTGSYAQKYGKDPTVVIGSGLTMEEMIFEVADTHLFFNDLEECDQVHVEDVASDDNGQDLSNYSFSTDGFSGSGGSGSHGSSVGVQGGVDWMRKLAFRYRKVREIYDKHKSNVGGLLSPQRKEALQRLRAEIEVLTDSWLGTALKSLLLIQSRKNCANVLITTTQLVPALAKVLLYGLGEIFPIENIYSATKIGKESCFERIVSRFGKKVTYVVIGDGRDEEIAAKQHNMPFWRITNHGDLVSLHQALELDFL

How the values were obtained:
Type in all cases: biochemical
EYA3 = EYA3 (Homo sapiens (Human), UniProt Q99504); assay: pNPP assay, full-length human recombinant EYA3; details: pNPP substrate
Description: (§1) The catalytic domain of mouse Eya3 (“ED”, comprising residues 223-510 of Eya3) was purified as described by Rayapureddi, J. P. et al. (FEBS Lett 580, 3853-3859 (2006), incorporated by reference in its entirety). For full-length Eya3 (“hEYA3”), human Eya3 isoform 2 (representing the major species identified in human cell lines by mass spectrometry, expressed as residues 127-573 of NM_001990, isoform 1) was sub-cloned into pDEST565 to express a poly-histidine-Glutathione-S-transferase (His-GST) tagged fusion protein with a TVMV protease site. The protein was purified by glutathione-S-transferase affinity chromatography followed by TVMV cleavage, Ni-NTA chromatography, and finally size exclusion chromatography.
[…] The amount of 4-nitrophenol (pNP) produced was monitored at […] on a BioTek EL808 plate reader. A similar protocol was used to screen for inhibitor activity using hEYA3 and hEYA2(ED).
The compounds were then tested using full-length human recombinant, purified EYA3 and pNPP as a substrate. Compounds were dissolved in DMSO and diluted as needed. […] Reactions were incubated at 30° C. for 30 minutes and quenched with 100 mM EDTA pH 10. IC50 values were then calculated directly from regression curves using PRISM software. All reported values are the mean of two independent experiments.

PTP1B = PTP1B (Homo sapiens (Human), UniProt P18031); assay: PTP1B-catalyzed pNPP hydrolysis; details: EYA3 vs PTP1B
Description: The catalytic domain of human Eya2 (“hEYA2(ED)”) was similarly sub-cloned as a polyhistidine fusion construct in the vector pDEST-527. Fusion protein was purified by NiNTA chromatography and followed by size-exclusion chromatography over a Superdex-75 column. The relative purity of protein samples was determined using SDS-PAGE. PTP1B was purified as described previously (Rayapureddi, J. P. et al. Nature 426, 295-298 (2003), incorporated by reference in its entirety).
(§2) An inhibitory assay was conducted using the previously described p-nitrophenylphosphate assay (Rayapureddi, J. P. et al. Nature 426, 295-298 (2003)). Briefly, ED was incubated in a reaction mixture containing 20 mM MES pH 6, 2 mM MgCl2, 125 μM inhibitor, 3.4 mM para-nitrophenol phosphate (pNPP) and 0.01 μg/μL enzyme.
PTP1B is a classical Cys-based tyrosine phosphatase.

Eya3(ED) = Eya3(ED) (Mus musculus (Mouse), UniProt P97480); assay: p-nitrophenylphosphate (pNPP) assay, catalytic domain of Eya3; details: pNPP substrate
Description: as §1
as §2, with “enzyme. The amount of 4-nitrophenol (pNP) produced was monitored at […] on a BioTek EL808 plate reader. […]” for “enzyme.”
The compounds were then tested using full-length human recombinant, purified EYA3 and pNPP as a substrate. […] IC50 values were then calculated directly from regression curves using PRISM software. […]

SMILES	IC50 (EYA3)	fold greater activity towards EYA3 than PTP1B (PTP1B)	IC50 (Eya3(ED))
CCc1oc2ccccc2c1C(=O)c1cc(Br)c(O)c(Br)c1 [Compound 1, Benzbromarone, reference compound]	8.3 µM	4.7-6.5 fold	11 µM
CCCCc1oc2ccccc2c1C(=O)c1ccc(O)cc1 [Compound 1b]	15.2 µM		
